From US20210238229A1, “PEPTIDE FOR DISEASE TREATMENT” (UNIVERSITY COLLEGE CORK - NATIONAL UNIVERSITY OF IRELAND, …, priority 2018, published 2021)

Biological target: T1, AT2 receptor (Homo sapiens, UniProt P50052)
T1 construct: expressed in transfected cells; host or cells: HEK-293, transient transfection with PolyFect
T1 sequence (P50052 1-363): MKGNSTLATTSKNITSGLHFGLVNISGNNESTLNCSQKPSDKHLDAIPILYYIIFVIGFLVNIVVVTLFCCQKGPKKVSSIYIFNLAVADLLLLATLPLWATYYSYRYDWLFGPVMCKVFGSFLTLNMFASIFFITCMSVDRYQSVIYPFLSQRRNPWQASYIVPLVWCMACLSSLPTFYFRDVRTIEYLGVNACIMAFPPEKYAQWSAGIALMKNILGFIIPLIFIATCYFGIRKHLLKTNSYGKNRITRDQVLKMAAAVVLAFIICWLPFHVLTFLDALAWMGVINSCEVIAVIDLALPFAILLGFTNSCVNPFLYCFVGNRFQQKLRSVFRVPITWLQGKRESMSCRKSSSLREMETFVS
Assay: cAMP in AT2-transfected HEK293 cells
Assay type: cell-based
Conditions: PTX and SQ-22536 inhibitor experiments
Method: Human embryonic kidney (HEK-293) cells were cultured in DMEM medium supplemented with FBS (10%), HEPES buffer (1%), sodium pyruvate (1%), and L-glutamine (1%) and maintained under standard conditions (5% CO2, 95% humidity and 37° C.). Cells were cultured in 100 mm cell culture dishes and seeded in 48-well plates at a density of 75,000 cells per well. The next day, HEK-293 cells were transfected using a transient transfection procedure following the manufacturer's instructions. […] The protein concentration was determined using Pierce BCA Protein Assay Kit according to the manufacturer's protocol (Thermo Fisher Scientific, Waltham, Mass., USA).
cAMP concentration in cell lysates was determined using Direct cAMP ELISA kit (Enzo Life Sciences Ltd., Exeter, United Kingdom). […] The enzymatic reaction was stopped by adding 50 μl of Stop Solution, and the absorbance at 405 nm was measured immediately. The cAMP concentration was determined from non-linear standard curve using GraphPad Prism 6.0 software.
AT2-transfected HEK293 cells were stimulated for 15 min with a range of concentrations (10^−14 to 10^−5 M) of C21, Ang II or PBS and the concentration of cAMP was measured in accordance with the methodology provided. […]

Angiotensin II [Ang II, reference compound]
G-protein activation via the AT2 receptor: cannot activate G-proteins via the receptor
